# Ab-14 light chain CDR variants: yeast mating affinities

Values reported by Li et al. 2023, doi:10.1038/s41467-023-39022-2 (FLAb copy).

Target peptide (SARS-CoV-2 spike, HR2 region): PDVDLGDISGINAS

Parent: Ab-14, a human scFv built as VH, the linker GGGGSGGGGSGGGGS, VL. Only the CDRs of the light chain vary.
VH: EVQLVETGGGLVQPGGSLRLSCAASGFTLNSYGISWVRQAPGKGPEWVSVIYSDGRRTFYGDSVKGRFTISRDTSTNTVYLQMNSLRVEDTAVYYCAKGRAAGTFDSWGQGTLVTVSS
VL: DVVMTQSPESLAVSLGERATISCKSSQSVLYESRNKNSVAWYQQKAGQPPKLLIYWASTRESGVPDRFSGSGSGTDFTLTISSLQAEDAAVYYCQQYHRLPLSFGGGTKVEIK

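The parent was found by panning a naive human phage display library on the peptide. The variants were designed computationally from a first round of random CDR variants and then made and measured. Several design methods are mixed in this list. The scFvs were displayed on barcoded MATa yeast, the peptide on MATalpha yeast. Pairs that bind mate more often; barcode pairs of the diploids are counted by sequencing. A regression on co-assayed BCL2-family reference pairs converts the normalised counts of each replicate to an apparent Kd. Each pool was mated in six replicate cultures.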

Variants are written as CDR1, CDR2 and CDR3 of the light chain (limits as in the source). Parent: KSSQSVLYESRNKNSVA, WASTRES, QQYHRLPLS. Affinities are written as log10 Kd with Kd in nM; a lower number is a better binder. Replicates are averaged; those with no signal do not enter the mean. "nd" means that the variant was in the library but no mating with the target was seen in any replicate; the authors take this as a sign of poor binding, and no number exists. Three control strains display no target. For all light chain designs, 4% of the pairings with them gave a signal, with a median of 2.64 and one signal in twenty below 1.59, so weak values seen in few replicates may be background.

log10 Kd (nM), mean | detected | CDR-L1 | CDR-L2 | CDR-L3
nd | 0 of 6 | TISQLMNMGSFAINSVA | QASIRNS | QQYDRLPLI
nd | 0 of 6 | IYSQSVWIESRNNNSVA | RASERES | QTYHNLPLS
-0.15 | 6 of 6 | KWSMSVMGESVNKNSVA | NASTRES | QQYHRLPLS
0.33 | 6 of 6 | KSSISYLYESRNQNSVA | EASTRES | QQYHRLPLS
-0.44 | 6 of 6 | KLQQSVLYESRNKNSVA | DASTRLS | QQYHRLPLS
1.37 | 5 of 6 | HISMSMNYLSVNKNSIA | EESTRED | QQYHRLPLS
1.27 | 6 of 6 | KLWAYTQGFFRNMQNIA | DISYRVT | QQYGRLPLS
0.29 | 6 of 6 | LLSGSEQYESRNKNSVA | DASTRES | QAYHRLPLS
0.14 | 6 of 6 | KISMLTRFQQNAKNNIA | EMNRREE | QQYHRLPLS
0.27 | 6 of 6 | KLSQSVLYESRNDNSVA | NASTRMS | QQYHRLPLS
0.57 | 6 of 6 | KFVQSWLYESRNKNSVA | GASTRES | QQYHRLPLI
-0.07 | 6 of 6 | KLPQSVLYESRNKNSVA | GASTRED | QSYHRLPLS
2.96 | 4 of 6 | MMLYGDNSVGSQKDSIA | EAEQVME | QHYFRLPLV
-0.16 | 6 of 6 | KLSQSVLYEERNKNNVA | HASTRES | QQYHRLPLS
1.13 | 6 of 6 | HMSMLTLMGLRNRNSVA | QMTTREN | QQYDRLPLA
0.31 | 6 of 6 | TLSHSTDLEMVHKNSIA | DLMTRES | QQYDRLPLS
-0.29 | 6 of 6 | KLSQSVLYESRNKNSVA | DAETRES | QQYHRLPLS
-0.34 | 6 of 6 | KVQQSELYESRNKNSVA | HASTRES | QQYHRLPLS
0.47 | 6 of 6 | KFSQSVLYESRTSNNVA | NASTRES | QQYHRLPLS
1.36 | 6 of 6 | KSSQQVLYEDKNVNSVA | HASQRMS | QQYHRLPLS
2.51 | 1 of 6 | KSSQSVLPESRNNNAVA | WASTRES | QQYHRLPSS
-0.32 | 6 of 6 | KLSQSELYESRNKNSVA | NASTRME | QQYHRLPLS
1.09 | 6 of 6 | KIMQSLNYESFSKNSVA | GQETRER | QSYHRLPLS
-0.07 | 6 of 6 | KLQQSELMESRNMNSVA | HASTRES | QDYHRLPLS
1.50 | 6 of 6 | KSSQSVDNESRNKNSVA | WASTRES | QQYHRLPLS
0.26 | 6 of 6 | KLSQWYWYESRNKNSVA | QASTREV | QQYWRLPLS
0.56 | 6 of 6 | KLRQSTLYESRNKNEVA | NASTRES | QQYHRLPLS
0.48 | 6 of 6 | KILGEIENQTYNRNSVA | HSTTRED | QSYHRLPLS
0.57 | 6 of 6 | KLSQSEPYESRCANSVA | NASTRCS | QQYHRLPLS
-0.55 | 6 of 6 | KLQGSVLYESRNKNSVA | GASTRES | QQYHRLPLS
-0.16 | 6 of 6 | SLTRFNLQNQGNSNNIA | DTNQTQE | QQYFRLPFA
-0.18 | 6 of 6 | KISQSWLYESRNKNSVA | GASLRES | QQYHRLPLS
0.15 | 6 of 6 | TLGQSTLMESRNKNNVA | QMSTRES | QQYDRLPLS
0.27 | 6 of 6 | KSSISYLYESANKNSVA | NGSTRES | QQYHRLPLS
0.55 | 6 of 6 | HITYGMQVMGRHSKSIA | QAEERAK | QQYDRLPLV
1.07 | 6 of 6 | IVSQVMSWGIKAKNSIA | EAQTRLN | QQYDRLPLF
0.08 | 6 of 6 | KSQQSELYESRNKNSVA | NASQRLS | QQYHRLPLS
2.50 | 2 of 6 | KCSQSVLYESRNKNSVA | WASTRES | QQYHHLPLS
0.99 | 6 of 6 | HITYGMMVMGRHSKSIA | QAEERAK | QQYDRLPLS
0.04 | 6 of 6 | ALSQSMDMTSRNKNSVA | DLSTRTN | QQYHRLPLS
0.20 | 6 of 6 | KLSQSVLYESRWKNNVA | NASTRES | QQYHRLPLS
0.79 | 6 of 6 | KSSQSVLYESGNKNSVA | QASTRAS | EQYHRLPLS
1.23 | 3 of 6 | KITLIFSNKGNSRHSVA | NAETLAH | QQYYRLPFM
0.88 | 6 of 6 | KLSMSDLYESRNKNSVA | EASTRES | QQYHRLPLS
2.96 | 4 of 6 | IVSQLMIWGMHAKNSIA | EAETRIN | QQYERLPLF
1.05 | 6 of 6 | TIQQMMSLFSQTINNVA | EVSTREK | QQYDRLPLA
2.98 | 5 of 6 | MISDMGLHDSRIQNSVA | NNSTREA | QQYDRLPLT
-0.36 | 6 of 6 | KLNQSVLYESRMKNSVA | GASTRES | QQYHRLPLS
-0.11 | 6 of 6 | KFMQSVLYESRNKNSVA | GASTRES | QQYHRLPLS
0.74 | 6 of 6 | QIYQAMHTLMQAKNNVA | DVNERGD | QQYFRLPLS
2.54 | 1 of 6 | KSSPSVLYESRNKNHVA | WASTRES | QQYHRLPLS

Extract of 6 entries:

{"CDR-L1": "HMSMLTLMGLRNRNSVA", "CDR-L2": "QMTTREN", "CDR-L3": "QQYDRLPLA", "log10 Kd (nM), mean": "1.13", "detected": "6 of 6"}
{"CDR-L1": "KCSQSVLYESRNKNSVA", "CDR-L2": "WASTRES", "CDR-L3": "QQYHHLPLS", "log10 Kd (nM), mean": "2.50", "detected": "2 of 6"}
{"CDR-L1": "KLSMSDLYESRNKNSVA", "CDR-L2": "EASTRES", "CDR-L3": "QQYHRLPLS", "log10 Kd (nM), mean": "0.88", "detected": "6 of 6"}
{"CDR-L1": "KLPQSVLYESRNKNSVA", "CDR-L2": "GASTRED", "CDR-L3": "QSYHRLPLS", "log10 Kd (nM), mean": "-0.07", "detected": "6 of 6"}
{"CDR-L1": "IYSQSVWIESRNNNSVA", "CDR-L2": "RASERES", "CDR-L3": "QTYHNLPLS", "log10 Kd (nM), mean": "nd", "detected": "0 of 6"}
{"CDR-L1": "KFSQSVLYESRTSNNVA", "CDR-L2": "NASTRES", "CDR-L3": "QQYHRLPLS", "log10 Kd (nM), mean": "0.47", "detected": "6 of 6"}

The authors' rule: three or more of the six replicates give a measured affinity, fewer mean a poor binder. Values of this round are not directly comparable with the first-round values of the same sequences.